Test results taken from PubChem BioAssay AID709 (SRMLSC, 2007).
The list shows a part of the results, in another mix than the full data. Activity calls are given as the source filed them.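 Rule for the calls: active = at 10 µM, mean starting fluorescence two-fold or more over control wells; inactive = the rest.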

Assay: intrinsic fluorescence of library compounds, ex339/em460 – biochemical, MLSMR library, data from DPM-DC assay, artefact control, profiling panel (AID 709);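 note: signal is the first read of a kinetic run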
Conditions: compound autofluorescence, ex339/em460 nm, NADH buffer; at 10 µM; stronger effect = higher value; 1 = no-compound wells, NADH background
In the case of `CCOc1ncccc1C(=O)NCC1(N2CCOCC2)CCCCC1`, the fluorescence fold increase is reported as inactive: 1.05.
With `CCC(CO)(C(=O)OC1CN2CCC1CC2)c1ccccc1` (configuration not stated) the fluorescence fold increase was inactive: 1.08.
With `Fc1ccccc1NC1CCN(Cc2ccccc2)CC1` the fluorescence fold increase was inactive: 1.
With `N/C(=N\O)c1c(N)no[n+]1[O-]` the fluorescence fold increase was inactive: 1.05.
With `N#CC1(Nc2ccccc2)CCN(CCc2ccccc2)CC1` the fluorescence fold increase was inactive: 1.07.
In the case of `COc1ccc(NC2CCN(CCc3ccccc3)CC2)c(OC)c1`, the fluorescence fold increase is reported as inactive: 1.05.
For `O=C(OC1CN2CCC1CC2)C1c2ccccc2Oc2ccccc21` (configuration not stated), the fluorescence fold increase was inactive: 1.07.
